The chains behind the UniProt entries cited, without tags or fusion partners. Residues count along the entry.
UniProt P48443, whole entry: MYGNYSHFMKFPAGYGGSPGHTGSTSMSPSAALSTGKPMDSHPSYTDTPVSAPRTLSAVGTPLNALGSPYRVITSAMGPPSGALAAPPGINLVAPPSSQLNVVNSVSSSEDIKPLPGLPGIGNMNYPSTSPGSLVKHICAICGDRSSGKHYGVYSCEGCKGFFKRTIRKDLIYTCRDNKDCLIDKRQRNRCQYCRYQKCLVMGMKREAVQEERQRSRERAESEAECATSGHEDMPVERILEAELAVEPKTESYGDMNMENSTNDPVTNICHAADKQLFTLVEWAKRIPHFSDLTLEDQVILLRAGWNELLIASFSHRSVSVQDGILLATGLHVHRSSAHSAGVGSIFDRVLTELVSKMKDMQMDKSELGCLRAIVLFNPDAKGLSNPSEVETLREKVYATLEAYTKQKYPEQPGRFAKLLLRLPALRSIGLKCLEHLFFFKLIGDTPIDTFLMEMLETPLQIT
UniProt P19793, whole entry: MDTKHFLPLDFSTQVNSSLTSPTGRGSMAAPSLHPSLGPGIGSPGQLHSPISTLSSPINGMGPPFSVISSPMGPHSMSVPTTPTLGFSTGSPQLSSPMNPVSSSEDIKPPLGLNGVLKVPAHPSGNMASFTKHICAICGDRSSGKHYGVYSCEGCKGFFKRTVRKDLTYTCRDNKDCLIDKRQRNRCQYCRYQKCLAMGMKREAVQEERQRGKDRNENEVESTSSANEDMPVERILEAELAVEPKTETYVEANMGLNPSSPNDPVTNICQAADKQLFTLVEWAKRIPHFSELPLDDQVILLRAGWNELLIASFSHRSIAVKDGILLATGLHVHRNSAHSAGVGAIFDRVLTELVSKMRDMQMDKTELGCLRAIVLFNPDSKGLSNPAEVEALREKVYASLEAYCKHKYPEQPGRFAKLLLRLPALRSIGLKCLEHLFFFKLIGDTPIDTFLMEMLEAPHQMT
UniProt P43354, 328-598 partner limits assumed: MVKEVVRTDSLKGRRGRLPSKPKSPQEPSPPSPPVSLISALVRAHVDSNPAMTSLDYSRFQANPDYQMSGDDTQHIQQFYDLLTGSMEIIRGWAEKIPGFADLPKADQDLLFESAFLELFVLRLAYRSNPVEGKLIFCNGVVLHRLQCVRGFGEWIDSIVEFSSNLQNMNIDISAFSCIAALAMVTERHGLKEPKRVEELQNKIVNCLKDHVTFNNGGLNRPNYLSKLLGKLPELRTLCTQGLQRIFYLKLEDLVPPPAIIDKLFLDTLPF

In US8575210B2, “Use of indole derivatives as NURR-1 activators for treating parkinson's disease” (Laboratoires Fournier SA, priority 2008, dated 2013):

How the values were obtained:
[1] = molecular target: hNurr1_RXRγFL (NURR-1/RXRγ heterodimer) (Homo sapiens, UniProt P48443); assay: Transactivation assay, NURR-1-Gal4/RXRγ luciferase reporter in Cos-7 cells
Experimental: (§1) To start with, using an in vitro assay, the capacity of the compounds according to the invention to behave as an activator of the heterodimers formed by the NURR-1 nuclear receptor and the RXR nuclear receptors was measured.
(§2) A transactivation assay was used as a primary screening test. Cos-7 cells were co-transfected with a plasmid expressing a chimera of the human receptor NURR-1-Gal4, a plasmid expressing the RXR human receptor (RXRα or RXRγ receptor) and a reporter plasmid 5Gal4pGL3-TK-Luc. The transfections were carried out using a chemical agent (Jet PEI).
(§3) The transfected cells were distributed in 384-well plates and left to stand for 24 hours.
(§4) After 24 hours, the culture medium was changed. The test products were added (final concentration between 10^−4 and 3.10^−10 M) in the culture medium. After incubation overnight, the expression of luciferase was measured after addition of “SteadyGlo” in accordance with the manufacturer's (Promega) instructions.
(§5) 4-[[6-Methyl-2-phenyl-5-(2-propenyl)-4-pyrimidinyl]amino]benzoic acid (called XCT0135908) at 2×10^−5 M (RXR agonist) was used as reference.
(§6) The levels of induction were calculated in relation to the basal activity of each heterodimer. The results were expressed as a percentage of the level of induction relative to the level of induction obtained with the reference (the level of induction of the reference is arbitrarily equal to 100%).

[2] = test system: hNurr1_RXRγFL (NURR-1/RXRγ heterodimer); assay: as above; conditions: NURR-1/RXR transactivation, both heterodimers of the table
Experimental: as §1, §2, §3, §4, §5, §6

[3] = molecular target: hNurr1_RXRαFL (NURR-1/RXRα heterodimer) (Homo sapiens, UniProt P19793); assay: Transactivation assay, NURR-1-Gal4/RXRα luciferase reporter in Cos-7 cells
Experimental: as §1, §2, §3, §4, §5, §6

[4] = level of induction relative to XCT0135908 at 2×10^-5 M = 100%

Eff hNurr1_RXRγFL (efficacy relative to the reference XCT0135908) [1, 4]: 74% | EC50 ([1]; read-out: EC50 hNurr1_RXRγFL, Cos-7 cells, Gal4 luciferase reporter): 1110 nM | EC50 of comparative compound relative to compounds of the invention (times greater) [2]: at least 10 times | Eff hNurr1_RXRαFL (efficacy relative to the reference XCT0135908) [3, 4]: 75% | EC50 ([3]; read-out: EC50 hNurr1_RXRαFL, Cos-7 cells, Gal4 luciferase reporter): 571 nM
Structure (SMILES): CC(C)c1ccc(S(=O)(=O)n2c(CCCC(=O)O)cc3cc(Cl)ccc32)cc1
